Experimental data from patent US4952607A, “Copper complex for treating cancer” (priority 1986, dated 1990).

Test system: Ehrlich carcinoma cells
Conditions: dose levels used

CC(C)c1cc(C(=O)[O-])c(O)c(C(C)C)c1.CC(C)c1cc(C(=O)[O-])c(O)c(C(C)C)c1.[Cu+2] [CuDIPS, Cu(II) (3,5-diisopropylsalicylate)2]
toxicity to the host: non-toxic to the host at the dose levels used
